# Data as given in article PMC10787407, “Regulation of polysaccharide in Wu‐tou decoction on intestinal microflora and pharmacokinetics of small molecular compounds in AIA rats” (Chinese Medicine, 2024).
# Assay: PK study of SM components in plasma of AIA rats by UPLC-MS/MS (MG vs MPS group)
# Conditions: for AUC 0-t / AUC 0-∞ / C max / T max / t 1/2: then oral SM 39.2 g crude drug/kg, plasma, mean ± SEM; for Absorption under the intervention of PS: MPS vs MG group
# [1] = MG group: AIA rats, saline 21 days
# [2] = MPS group compared with the MG group, AIA rats
# [3] = MPS group: AIA rats, oral PS 9.8 g crude drug/kg/day 21 days
Substance,AUC 0-t [1],AUC 0-∞ [1],C max [1],T max [1],t 1/2 [1],Change of AUC 0-t after oral PS [2],Change of AUC 0-∞ after oral PS [2],AUC 0-t [3],AUC 0-∞ [3],C max [3],T max [3],t 1/2 [3],Absorption under the intervention of PS (AIA rats),Change of C max after oral PS [2]
Liquiritin apioside,941.302 ± 42.085 ng·h/mL,1053.558 ± 63.193 ng·h/mL,571.677 ± 49.414 ng/mL,0.250 ± 0.001 h,4.060 ± 0.589 h,increased,increased,1580.263 ± 242.037 ng·h/mL,1669.308 ± 244.694 ng·h/mL,850.691 ± 179.709 ng/mL,0.083 ± 0.001 h,2.969 ± 0.328 h,increased,–
Methylephedrine,27.900 ± 4.829 ng·h/mL,30.265 ± 3.815 ng·h/mL,14.012 ± 2.615 ng/mL,0.083 ± 0.001 h,4.131 ± 1.363 h,decreased significantly,decreased significantly,16.109 ± 2.770 ng·h/mL,18.607 ± 4.409 ng·h/mL,12.523 ± 3.287 ng/mL,0.083 ± 0.001 h,4.331 ± 0.765 h,decreased,–
Oxypaeoniflorin,61.034 ± 2.601 ng·h/mL,67.007 ± 3.218 ng·h/mL,28.569 ± 0.784 ng/mL,0.437 ± 0.110 h,3.408 ± 0.586 h,significantly higher,significantly higher,70.355 ± 1.558 ng·h/mL,75.327 ± 2.198 ng·h/mL,31.514 ± 0.848 ng/mL,0.458 ± 0.093 h,3.399 ± 0.306 h,increased,significantly higher
